The values that follow come from US20040006018A1.

Assay [1] concerns the target Mouse LIF receptor on mouse M1 cells (LIF receptor complex with gp130) (mouse) (UniProt P42703). Description: 0.047 nM 125I-mouse CT-1 on M1 cells competed by unlabeled LIF, Scatchard, one-site fit.
The target in assay [2] is LIF receptor on neonatal rat primary cardiac myocytes (rat) (UniProt O70535). Put plainly: cell-based or functional assay. The note with it: scale: score.
The target of assay [3] is Mouse LIF receptor on mouse M1 cells (LIF receptor complex with gp130) (mouse) (UniProt P42703). Description: cell-based or functional assay.
For assay [4] the target is unchanged. Description: Scatchard analysis of binding to M1 cells, summary over both labeled ligands.
For assay [5] the target is unchanged. Put plainly: 0.042 nM 125I-mouse LIF on M1 cells competed by unlabeled LIF, Scatchard, one-site fit.

With “Mouse LIF (leukemia inhibitory factor) (from UniProt P09056 24-203) (ligand)”, the sites/cell in assay [1] amounted to 1800 sites/cell. In addition, in assay [2], the Hypertrophy Score of neonatal rat cardiac myocytes at 0.05 nM was found to be 4, the Hypertrophy Score of neonatal rat cardiac myocytes at 0.25 nM came out at 5.5 and the Hypertrophy Score of neonatal rat cardiac myocytes at 2.5 nM turned out to be 6. The same substance returned an EC50 of inhibition of 3H-thymidine incorporation in the mouse myeloid leukemia cell line, M1 in assay [3] of 48 pM. In assay [4], this substance came in with a sites per cell (sites per cell) of 1500. This substance also gave a sites/cell in assay [5] of 1200 sites/cell.
